Legend:
[1] = Equilibrium dialysis, free fraction in plasma; conditions: 10 μg g−1, 5 h dialysis at 37 °C
MRC5 cells = assay: Resazurin cell viability counter-screen, EC50 determinations against mammalian cells; assay type: cell-based; conditions: fold-specificity for T. brucei over human fibroblasts (MRC5)

Compound | Fraction unbound in mouse plasma [1] | Selectivity (MRC5 cells)
CN(C(=O)Cc1ccc(Cl)c(Cl)c1)[C@@H]1CCCC[C@H]1N1CCCC1 | 0.69 | –
(±) trans-U-50488 methanesulfonate | – | 230

From PMC3025325, “Identification of a κ-opioid agonist as a potent and selective lead for drug development against human African trypanosomiasis” (Biochemical Pharmacology, 2010)
